These results are taken from patent US6194143A, “Substrates for human cytomegalovirus protease” (Boehringer Ingelheim (Canada) Ltd., priority 1998, dated 2001).

A short description of data set [1]: Stability of 10 mM DMSO stock solutions at 4° C. It is filed as physicochemical. To be noted: 10 mM in DMSO, stored at 4° C. Here is the method: Stock solutions (10 mM) in DMSO of the compounds prepared in examples 2, 3, 4, 5 and 6 were stored at 4° C. […] Aliquoted samples of HCMV protease 50 μM (1.4 mg/ml) were kept at -80° C. in storing buffer without detectable loss of activity over an extended period of more than a year. The calculated molecular mass of wild-type HCMV protease was 28042 Da. The concentration of enzyme on which the calculations of the turnover number, kcat, and the specificity constant, kcat /Km, were derived was expressed in terms of total monomer concentration.

The conditions of data set [2]: aliquots at 4° C.; with 0.1% w/v casein, 20 μM cold substrate 13, 5 mM dithiothreitol.

Regarding “d-Biotin-Arg-Gly-Tbg-Tbg-Asn (Me) 2 -Ala-Ser-Ser-Arg-Leu-Ala-Tyr-NH2 [Substrate 5]”, the “stability of compound in stock solution” value in data set [1] was “stable for several weeks”. For the substance “d-Biotin-Arg-Gly-Tbg-Tbg-Asn(Me)2 -Ala-Ser-Ser-Arg-Leu-Ala-Tyr(^125,)-NH2 [Substrate 13a]”, the “time solution was stable” value in data set [2] is listed as 3-4 weeks. For the substance “d-Biotin-Arg-Gly-Val-Val-Asn-Ala-Ser-Ser-Arg-Leu-Ala-Tyr-NH2 [Substrate 4]”, the “stability of compound in stock solution” value in data set [1] is given as “stable for several weeks”.
